Measurements reported in patent US9650440B2, “Monoclonal antibodies that specifically block biological activity of a tumor antigen” (Morphotek, Inc., priority 2004, dated 2017).

By UniProt entry, the sequences of proteins in these tests, tags left out. Residues count along the entry.
UniProt P15328, 25-234: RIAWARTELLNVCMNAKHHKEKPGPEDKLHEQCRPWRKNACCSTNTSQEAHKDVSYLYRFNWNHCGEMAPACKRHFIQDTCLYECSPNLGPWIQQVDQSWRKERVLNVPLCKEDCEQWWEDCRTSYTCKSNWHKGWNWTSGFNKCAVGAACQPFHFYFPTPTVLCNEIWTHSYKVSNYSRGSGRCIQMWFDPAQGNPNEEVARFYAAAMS

Molecular target: FR-α (Homo sapiens, UniProt P15328)
Test: Immunohistochemistry, tissue cross-reactivity on human tissues
Type: binding
Parameters: Human tissue samples were obtained at autopsy or biopsy; from tissue; host or cells: human normal and tumour tissues, acetone/formalin-fixed cryosections; key to Expression by IHC: +/− indicates level of expression as detected by immunohistochemistry; +++: +/− indicates level of expression as detected by immunohistochemistry; ++++: +/− indicates level of expression as detected by immunohistochemistry; +++++: +/− indicates level of expression as detected by immunohistochemistry
From the text: Tissue preparation. Human tissue samples were obtained at autopsy or biopsy. Tissues tested included adrenal, blood cells (granulocytes, lymphocytes, monocytes, platelets), blood vessels (endothelium), bone marrow, brain (cerebrum (cortex), cerebellum), breast (mammary gland), eye, gastrointestinal tract (colon (large intestine), esophagus, small intestine, stomach), heart, kidney (glomerulus, tubule), liver, lung, lymph node, ovary and fallopian tube (oviduct), pancreas, parathyroid, peripheral nerve, pituitary, placenta, prostate, salivary gland, skin, spinal cord, spleen, striated (skeletal) muscle, testis, thymus, thyroid, tonsil, ureter, urinary bladder, uterus (body (endometrium), cervix), ovarian carcinoma (carcinoma cells), ovarian carcinoma (stromal fibroblasts). Fresh unfixed tissue samples were placed in molds and frozen on dry ice in TISSUE-TEK O.C.T. embedding medium. Tissue samples were sectioned and fixed for 10 minutes in room temperature acetone. Tissues were stored below −70° C. until staining. Just prior to staining, the slides were fixed in 10% neutral buffered formalin.
Antibody preparation. Antibody was applied to tissue samples at two concentrations: 1 microgram/milliliter and 25 micrograms/milliliter.
Assays lacking primary antibody were used as an assay control. Mouse anti-fluorescein was used as secondary antibody. Goat anti-mouse IgG (GAMIgG)-peroxidase polymer was used as tertiary antibody. 3,3′-diaminobenzidinen (DAB) was used as substrate chromogen.
Immunohistochemistry analysis. An indirect immunoperoxidase procedure was performed. Acetone/formalin-fixed cryosections were rinsed twice in phosphate buffered saline (PBS [0.3M NaCl, pH 7.2]). Endogenous peroxidase was blocked by incubating the slides with peroxidase solution of Dako EnVision Kit for 5 minutes followed by two rinses in phosphate buffered saline. Slides were then treated with a protein block (phosphate buffered saline, 0.5% casein, 5% human gamma globulins, and 1 mg/ml heat aggregated HuIgG (prepared by heating a 5 mg/ml solution to 63° C. for 20 minutes and then cooling to room temperature)) designed to reduce nonspecific binding for 20 minutes. Following the protein block, primary antibody (anti-FR-α antibody, negative control antibody (HuIgG1 or MsIgG1), or none) was applied at room temperature for one hour. Unconjugated secondary antibody (mouse anti-fluorescein) was applied for 30 minutes. Slides were twice rinsed with PBS, treated with peroxidase-labeled goat anti-mouse IgG polymer (Dako EnVision kit) for 30 minutes, rinsed twice with PBS, and treated with substrate-chromogen (DAB; Dako EnVision) for 8 minutes. Slides were rinsed in water, counterstained with hematoxylin, dehydrated, and coverslipped.

B1: anti-FR-α antibody: humanized anti-FR-α antibody, heavy chain SEQ ID NO:5 and light chain SEQ ID NO:2, expressed in CHO-K1 cells (antibody)
heavy: EVQLVESGGGVVQPGRSLRLSCSASGFTFSGYGLSWVRQAPGKGLEWVAMISSGGSYTYYADSVKGRFAISRDNAKNTLFLQMDSLRPEDTGVYFCARHGDDPAWFAYWGQGTPVTVSSASTKGPSVFPLAPSSKSTSGGTAALGCLVKDYFPEPVTVSWNSGALTSGVHTFPAVLQSSGLYSLSSVVTVPSSSLGTQTYICNVNHKPSNTKVDKKV[human IgG1 Fc not written out]
light: DIQLTQSPSSLSASVGDRVTITCSVSSSISSNNLHWYQQKPGKAPKPWIYGTSNLASGVPSRFSGSGSGTDYTFTISSLQPEDIATYYCQQWSSYPYMYTFGQGTKVEIKRTVAAPSVFIFPPSDEQLKSGTASVVCLLNNFYPREAKVQWKVDNALQSGNSQESVTEQDSKDSTYSLSSTLTLSKADYEKHKVYACEVTHQGLSSPVTKSFNRGEC
IHC reactivity with ovarian carcinoma (stromal fibroblasts), negative control: did not react | IHC specific staining in neoplastic human tissues: specific staining was observed in ovarian carcinoma tissue, endometrial carcinoma tissue, and renal carcinoma tissue | IHC staining of human ovarian carcinoma cells (HT162), positive control (1 and 25 micrograms/milliliter): specifically and intensely stained | Expression by IHC (Tumor tissue origin: Brain): +++ | % positive samples of total tested (Tumor tissue origin: Brain, n=5): 80% | Expression by IHC (Tumor tissue origin: Breast): ++++ | % positive samples of total tested (Tumor tissue origin: Breast, n=53): 21% | Expression by IHC (Tumor tissue origin: Colorectal): +++ | % positive samples of total tested (Tumor tissue origin: Colorectal, n=27): 22% | Expression by IHC (Tumor tissue origin: Endometrial): +++ | % positive samples of total tested (Tumor tissue origin: Endometrial, n=11): 91% | Expression by IHC (Tumor tissue origin: Lung): +++ | % positive samples of total tested (Tumor tissue origin: Lung, n=18): 33% | Expression by IHC (Tumor tissue origin: Melanoma): − | % positive samples of total tested (Tumor tissue origin: Melanoma, n=8): 0% | Expression by IHC (Tumor tissue origin: Normal adult): − | % positive samples of total tested (Tumor tissue origin: Normal adult, n=62): 0% | Expression by IHC (Tumor tissue origin: Ovarian carcinoma cells): +++++ | % positive samples of total tested (Tumor tissue origin: Ovarian carcinoma cells, n=136): 91% | Expression by IHC (Tumor tissue origin: Renal): ++++ | % positive samples of total tested (Tumor tissue origin: Renal, n=18): 50% | Expression by IHC (Tumor tissue origin: lymphoma): − | % positive samples of total tested (Tumor tissue origin: lymphoma, n=32): 0% | IHC specific staining in normal human tissues (both antibody concentrations (1 and 25 micrograms/milliliter)): specific staining was observed in tubular epithelium (kidney), bronchiolar epithelium (lung); pneumocytes (lung); epithelium of fallopian tube; and duct and ductile epithelium of the pancreas
